The results in this text go back to PubChem BioAssay AID1020 (Sanford-Burnham Center for Chemical Genomics, 2008).

The list shows a part of the results, in another mix than the full data. Calls of active or inactive are those of the source. Cut-off read from the data, not from the text of the source: active = inhibition above about 50%; inactive = the rest.

This experiment deals with glucose-6-phosphate dehydrogenase [Leuconostoc mesenteroides]. Nature of the experiment: bacterial G6PDH enzyme inhibition, coupled readout – biochemical, Leuconostoc mesenteroides enzyme, counter-screen for G6PDH-coupled screening assays (AID 1020). The settings on record: Purified L. mesenteroides G6PDH, diaphorase/resazurin coupled fluorescence, 45 min; at 5 µM; hits give high values. On the technique in general: A counterscreen serves to expose hits that act by an unwanted route or on another target.
One may read the inhibition as the drop in the measured response relative to a control, in per cent. For `c1ccc(CN2CCC(Nc3ccccc3)CC2)cc1`, the inhibition was inactive: 11.6%. Turning to `N#Cc1ccc(C(=O)NCC2(N3CCCCC3)CCCCC2)cc1`, the inhibition is inactive: 2.1%. The value for `N/C(=N\O)c1c(N)no[n+]1[O-]` was inactive: 2.9%; that for `O=C(OC1CN2CCC1CC2)C1c2ccccc2C=Cc2ccccc21` (stereo not given) was inactive: 4.7%. As for `COc1ccc(C(=O)NCC2(N3CCOCC3)CCCCC2)cc1OC`, the inhibition is inactive: 9.2%.

Consider `COc1cc(OC)cc(C(=O)NCC2(N3CCOCC3)CCCCC2)c1`, for which the inhibition is inactive: 1.4%.

For the compound `CCC(CO)(C(=O)OC1CN2CCC1CC2)c1ccccc1` (stereo not given), the inhibition was inactive: 5.1%. For the compound `CCOc1ncccc1C(=O)NCC1(N2CCOCC2)CCCCC1`, the inhibition was inactive: 1.9%. On to `CC(C)(C)OC(=O)N1CCC(Nc2ccccc2)CC1`, for which the inhibition is inactive: 4.2%. Consider `CCN1CCC(Nc2cccc(F)c2)CC1`, for which the inhibition is inactive: 5.7%.

On to `CN(C)c1ccc(C(=O)NCC2(N3CCCCC3)CCCCC2)cc1`, for which the inhibition is inactive: -1.7%. The value for `Fc1ccccc1NC1CCN(Cc2ccccc2)CC1` was inactive: 12.1%. The value for `COc1ccc(NC2CCN(CCc3ccccc3)CC2)c(OC)c1` was inactive: 6.5%; that for `O=C(NCC1(N2CCOCC2)CCCCC1)c1cc2ccccc2o1` was inactive: 12.2%; that for `O=C(OC1CN2CCC1CC2)C1c2ccccc2Oc2ccccc21` (stereo not given) was inactive: 3.8%. The result for `CCOC(=O)N1CCC(Nc2ccc(OC)cc2)CC1` reads inactive: 3.1%; that for `COc1ccc(C(=O)NCC2(N3CCCCC3)CCCCC2)c(OC)c1OC`, inactive: -1.2%; that for `CC(C)c1ccc(NC2CCN(C(=O)OC(C)(C)C)CC2)cc1`, inactive: 3.5%. Consider `CN(C)c1cccc(C(=O)NCC2(N3CCCCC3)CCCCC2)c1`, for which the inhibition is inactive: -1.4%.

For `COc1ccc(CN(CCCl)CCCl)cc1Cl`, the inhibition is inactive: 7.6%. Take `O=C(NCC1(N2CCOCC2)CCCCC1)c1cc(=O)[nH]c2ccccc12`: the inhibition was inactive: 2.1%. The value for `CN1CCN(CCOC(=O)C(O)(c2ccccc2)c2ccccc2)CC1` was inactive: 10.3%; that for `COc1ccc(NC2CCN(C(=O)OC(C)(C)C)CC2)cc1` was inactive: 18.7%; that for `N#CC1(Nc2ccccc2)CCN(CCc2ccccc2)CC1` was inactive: 6.9%. Turning to `O=C(NCC1(N2CCCCC2)CCCCC1)c1cccc([N+](=O)[O-])c1`, the inhibition is inactive: 5.8%.
